Only a part is listed here, and it is no random draw. Calls of active or inactive are those of the source.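 Rule for the calls: active = response, share of CD8 T cells binding vesicles, and their 90th percentile fluorescence all below set limits (cut at about 80% in these data, passing the limit was not always enough); inactive = the rest, inconclusive results apart.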
Assay: murine CD8 T cell vesicle adhesion modulation – mouse 2C CD8+ T cells, flow cytometry, primary screen (AID 2052);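 note: values below 100% mean blocked vesicle binding to the CD8+ T cells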
Details: 2C CD8+ T cell-vesicle binding, at 7 µM, stronger effect = lower value
Summary of the method: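 Material: murine 2C transgenic CD8+ T lymphocytes / Also added: QL9-peptide-loaded Drosophila micro-vesicles bearing Ld, ICAM-1 and B7-1 / Schedule: binding step 1.5 h, 37 °C, antibody labelling 20 min, ice / Signal: flow cytometry, PE anti-B7-1 (FL2) versus Alexa647 anti-CD8 (FL8), PFA-fixed / Evaluation: percent CD8+ FL2 mean versus row control / Benchmarks: naked versus QL9-loaded vesicles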

| Compound | response (vesicle binding) |
| --- | --- |
| C[N+]1=C2C=CC=CC=C2SC12C([N+](=O)[O-])=CC([N+](=O)[O-])=C[C-]2[N+](=O)[O-] (stereo unspecified) | active: 48.2% |
